The chains behind the UniProt entries cited, without tags or fusion partners. Where a name states a change or a piece, a line headed by the entry shows the natural chain unless it says otherwise.
UniProt Q9P1W9: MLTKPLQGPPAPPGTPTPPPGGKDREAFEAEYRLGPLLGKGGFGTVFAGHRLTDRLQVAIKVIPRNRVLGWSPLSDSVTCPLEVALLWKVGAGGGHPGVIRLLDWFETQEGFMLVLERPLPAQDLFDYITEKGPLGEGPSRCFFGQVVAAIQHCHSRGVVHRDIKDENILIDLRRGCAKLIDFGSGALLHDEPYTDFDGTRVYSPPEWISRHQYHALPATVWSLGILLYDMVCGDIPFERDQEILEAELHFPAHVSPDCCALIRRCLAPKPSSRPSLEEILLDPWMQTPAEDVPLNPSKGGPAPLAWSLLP
UniProt P11309, whole entry: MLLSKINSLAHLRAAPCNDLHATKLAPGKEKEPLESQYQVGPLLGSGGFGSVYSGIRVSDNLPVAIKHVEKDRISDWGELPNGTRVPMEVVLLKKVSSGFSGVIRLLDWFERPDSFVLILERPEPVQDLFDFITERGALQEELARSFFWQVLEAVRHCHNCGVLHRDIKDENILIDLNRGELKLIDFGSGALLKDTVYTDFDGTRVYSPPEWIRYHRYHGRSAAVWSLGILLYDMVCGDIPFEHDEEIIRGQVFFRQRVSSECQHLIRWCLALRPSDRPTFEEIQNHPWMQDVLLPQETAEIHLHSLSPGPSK

The compounds below were run against full length recombinant Pim-2 (Homo sapiens (Human), UniProt Q9P1W9) (assay: Pim enzyme assay (HTRF, phosphorylation of biotinylated-BAD (S112) peptide), Pim-2). Conditions: Pim-2 enzyme assay; read-out: Pim2_IC50.
Assay type: biochemical
`Oc1nnc(-c2ccc3[nH]cc(-c4cccc(N5CCOCC5)n4)c3c2)s1` [Example 29, 5-(3-(6-morpholinopyridin-2-yl)-1H-indol-5-yl)-1,3,4-thiadiazol-2-ol] was tested, and the IC50 was 254 nM.
With `Nc1nnc(-c2ccc3[nH]cc(-c4cccc(OC5CCCC5)n4)c3c2)s1` [Example 163, 5-(3-(6-(cyclopentyloxy)-2-pyridinyl)-1H-indol-5-yl)-1,3,4-thiadiazol-2-amine] the IC50 was 40.8 nM.
`Cc1nc(-c2c[nH]c3ccc(-c4nnc(N)s4)cc23)ccc1F` [Example 191, 5-(3-(5-fluoro-6-methyl-2-pyridinyl)-1H-indol-5-yl)-1,3,4-thiadiazol-2-amine] gave an IC50 of 822 nM.
With `Nc1nnc(-c2ccc3[nH]cc(-c4cncc(N5CCC(F)(F)CC5)n4)c3c2)o1` [Example 2, 5-(3-(6-(4,4-difluoropiperidin-1-yl)pyrazin-2-yl)-1H-indol-5-yl)-1,3,4-oxadiazol-2-amine] the IC50 was 2.26 nM.
With `Nc1nnc(-c2ccc3[nH]cc(-c4nccc(-c5ccccc5F)n4)c3c2)o1` [Example 123, 5-(3-(4-(2-fluorophenyl)-2-pyrimidinyl)-1H-indol-5-yl)-1,3,4-oxadiazol-2-amine] the IC50 was 7 nM.
With `CC(C)Nc1nnc(-c2ccc3[nH]cc(-c4nc(C(N)=O)cc(C5CC5)n4)c3c2)o1` [Example 48, 6-cyclopropyl-2-(5-(5-(isopropylamino)-1,3,4-oxadiazol-2-yl)-1H-indol-3-yl)pyrimidine-4-carboxamide] the IC50 was 2.96 nM.
`CC(C)Cn1cc(-c2c[nH]c3ccc(-c4nnc(N)o4)nc23)cn1` [Example 127, 5-(3-(1-(2-methylpropyl)-1H-pyrazol-4-yl)-1H-pyrrolo[3,2-b]pyridin-5-yl)-1,3,4-oxadiazol-2-amine] gave an IC50 of 289 nM.
With `Nc1nnc(-c2ccc3[nH]cc(-c4cccc(OC5CCC5)n4)c3c2)s1` [Example 161, 5-(3-(6-(cyclobutyloxy)-2-pyridinyl)-1H-indol-5-yl)-1,3,4-thiadiazol-2-amine] the IC50 was 16.8 nM.
`CNc1nnc(-c2ccc3[nH]cc(-c4csc(-n5cnc(C)c5)n4)c3c2)s1` [Example 233, N-methyl-5-(3-(2-(4-methyl-1H-imidazol-1-yl)-1,3-thiazol-4-yl)-1H-indol-5-yl)-1,3,4-thiadiazol-2-amine] showed an IC50 of 502 nM.
`c1cc2[nH]cc(-c3cncc(C4CC4)n3)c2cc1-c1nnc(N2CCOCC2)o1` [Example 245, 3-(6-cyclopropyl-2-pyrazinyl)-5-(5-(4-morpholinyl)-1,3,4-oxadiazol-2-yl)-1H-indole] showed an IC50 of 35.8 nM.
`CNc1nc(-c2ccc3[nH]cc(-c4cncc(OC(C)C)n4)c3c2)no1` [Example 72, 3-(3-(6-isopropoxypyrazin-2-yl)-1H-indol-5-yl)-N-methyl-1,2,4-oxadiazol-5-amine] showed an IC50 of 242 nM.
`c1cc(C2CC2)nc(-c2c[nH]c3ccc(-c4nnc(NC5COC5)o4)cc23)n1` [Example 256, 5-(3-(4-cyclopropyl-2-pyrimidinyl)-1H-indol-5-yl)-N-3-oxetanyl-1,3,4-oxadiazol-2-amine] showed an IC50 of 3.2 nM.

Each compound was assayed against full length recombinant Pim-3 (Homo sapiens (Human), UniProt Q86V86) (assay: Pim enzyme assay (HTRF, phosphorylation of biotinylated-BAD (S112) peptide), Pim-3). Conditions: Pim-3 enzyme assay; read-out: Pim3 IC50.
Assay type: biochemical
`Nc1nnc(-c2ccc3[nH]cc(-c4cccc(OC5CCCCC5)n4)c3c2)s1` [Example 173, 5-(3-(6-(cyclohexyloxy)-2-pyridinyl)-1H-indol-5-yl)-1,3,4-thiadiazol-2-amine] showed an IC50 of 17.8 nM.
In the case of `CNc1nnc(-c2ccc3[nH]cc(-c4cccc(OC(C)C)n4)c3c2)o1` [Example 41, 5-(3-(6-isopropoxypyridin-2-yl)-1H-indol-5-yl)-N-methyl-1,3,4-oxadiazol-2-amine], the IC50 is reported as 2.26 nM.
Work on `Nc1nnc(-c2ccc3[nH]cc(-c4cncc(NC5CCCCC5)n4)c3c2)s1` [Example 208, 6-(5-(5-amino-1,3,4-thiadiazol-2-yl)-1H-indol-3-yl)-N-cyclohexyl-2-pyrazinamine] yielded an IC50 of 1.99 nM.
`CCN(C)c1cnc(-c2c[nH]c3ccc(-c4nnc(N)s4)cc23)cn1` [Example 188, 5-(5-(5-amino-1,3,4-thiadiazol-2-yl)-1H-indol-3-yl)-N-ethyl-N-methyl-2-pyrazinamine] showed an IC50 of 126 nM.
`Nc1nnc(-c2ccc3[nH]cc(-c4cncc(-c5ccc(Cl)cc5)n4)c3c2)o1` [Example 114, 5-(3-(6-(4-chlorophenyl)-2-pyrazinyl)-1H-indol-5-yl)-1,3,4-oxadiazol-2-amine] gave an IC50 of 7.02 nM.
In the case of `CC(C)Cn1cc(-c2c[nH]c3ccc(-c4nnc(N)o4)nc23)cn1` [Example 127, 5-(3-(1-(2-methylpropyl)-1H-pyrazol-4-yl)-1H-pyrrolo[3,2-b]pyridin-5-yl)-1,3,4-oxadiazol-2-amine], the IC50 is reported as 309 nM.
`c1cc2[nH]cc(-c3cncc(C4CC4)n3)c2cc1-c1nnc(N2CCOCC2)o1` [Example 245, 3-(6-cyclopropyl-2-pyrazinyl)-5-(5-(4-morpholinyl)-1,3,4-oxadiazol-2-yl)-1H-indole] showed an IC50 of 7.94 nM.
`Nc1nnc(-c2ccc3[nH]cc(-c4cccc(N5CCCCC5)n4)c3c2)s1` [Example 172, 5-(3-(6-(1-piperidinyl)-2-pyridinyl)-1H-indol-5-yl)-1,3,4-thiadiazol-2-amine] gave an IC50 of 13.9 nM.
`CC(C)Oc1cccc(-c2c[nH]c3ccc(-c4nnc(N)s4)cc23)n1` [Example 157, 5-(3-(6-(1-methylethoxy)-2-pyridinyl)-1H-indol-5-yl)-1,3,4-thiadiazol-2-amine] gave an IC50 of 1.58 nM.
Work on `Nc1nnc(-c2ccc3[nH]cc(-c4cc(C(F)(F)F)ncn4)c3c2)o1` [Example 95, 5-(3-(6-(trifluoromethyl)-4-pyrimidinyl)-1H-indol-5-yl)-1,3,4-oxadiazol-2-amine] yielded an IC50 of 116 nM.

These compounds were tested against full length recombinant Pim-1 (Homo sapiens (Human), UniProt P11309) (assay: Pim enzyme assay (HTRF, phosphorylation of biotinylated-BAD (S112) peptide), Pim-1). Conditions: Pim-1 enzyme assay; read-out: Pim_1_IC50.
Assay type: biochemical
For `Cc1nc(-c2c[nH]c3ccc(-c4nnc(N)s4)cc23)ccc1F` [Example 191, 5-(3-(5-fluoro-6-methyl-2-pyridinyl)-1H-indol-5-yl)-1,3,4-thiadiazol-2-amine], the IC50 was 792 nM.
`CC(C)Nc1cncc(-c2c[nH]c3ccc(-c4nnc(N)s4)cc23)n1` [Example 206, 6-(5-(5-amino-1,3,4-thiadiazol-2-yl)-1H-indol-3-yl)-N-(1-methylethyl)-2-pyrazinamine] showed an IC50 of 1.75 nM.

Reference: patent US9321756B2, “Azole compounds as PIM inhibitors” (priority 2011, dated 2016)
